Reference: patent publication US6410715 (QUESTCOR PHARMACEUTICALS, dated 2002)

Amino acid sequences for entries named in this document (tags omitted). Residues count along the entry.
UniProt P29338, 2-217 limits assumed: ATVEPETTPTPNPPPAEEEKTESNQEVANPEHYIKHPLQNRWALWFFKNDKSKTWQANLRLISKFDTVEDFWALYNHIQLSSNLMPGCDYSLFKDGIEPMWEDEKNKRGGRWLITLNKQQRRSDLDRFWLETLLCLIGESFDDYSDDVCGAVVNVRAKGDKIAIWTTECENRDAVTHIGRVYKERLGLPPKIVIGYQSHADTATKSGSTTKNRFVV

Biological target: eIF-4E of rabbit reticulocyte lysate (rabbit, UniProt P29338)
Experiment: cell-based or functional assay

inhibition of translation of CAT (cap-dependent): ~5 fold
B1: GST-4E-BP1 fusion protein (other, not shown: a dimerising Fc or GST; large carriers; small tags and cut ends)
chain: GSSCSQTPSRAIPATRRVVLGDGVQLPPGDYSTTPGGTLFSTTPGGTRIIYDRKFLMECRNSPVTKTPPRDLPTIPGVTSPSSDEPPMEASQSHLRNSPEDKRAGGEESQFEMDI
